Measured values as given in article PMC5646861, “Structural and functional analysis of SMO-1, the SUMO homolog in Caenorhabditis elegans” (PLoS ONE, 2017).

Chains of the proteins cited; added tags and fusions are not shown. Lines headed by an entry give the natural chain unless they say otherwise; changes in a name come on top. Residues count along the entry.
UniProt P29590, 547-573: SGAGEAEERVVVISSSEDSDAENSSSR
UniProt P19893: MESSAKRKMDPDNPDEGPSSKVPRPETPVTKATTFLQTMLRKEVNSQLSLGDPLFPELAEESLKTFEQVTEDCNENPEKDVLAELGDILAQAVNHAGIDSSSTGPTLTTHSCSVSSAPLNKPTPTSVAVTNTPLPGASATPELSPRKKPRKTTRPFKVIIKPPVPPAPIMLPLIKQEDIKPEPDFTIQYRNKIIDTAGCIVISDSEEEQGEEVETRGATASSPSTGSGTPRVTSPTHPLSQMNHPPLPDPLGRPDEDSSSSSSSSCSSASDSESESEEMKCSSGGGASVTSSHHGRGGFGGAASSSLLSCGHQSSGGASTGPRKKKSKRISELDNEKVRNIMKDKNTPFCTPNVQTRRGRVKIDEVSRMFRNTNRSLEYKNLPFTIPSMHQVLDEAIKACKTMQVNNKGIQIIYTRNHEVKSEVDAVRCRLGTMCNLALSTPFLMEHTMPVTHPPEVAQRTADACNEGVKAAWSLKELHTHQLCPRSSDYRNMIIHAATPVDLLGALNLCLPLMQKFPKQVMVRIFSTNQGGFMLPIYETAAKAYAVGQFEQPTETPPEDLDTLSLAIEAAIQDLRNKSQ

Tests used:
PML SIM (Homo sapiens) = PML SIM (Homo sapiens) (UniProt P29590)
[1] = molecular target: IE2 SIM (Human cytomegalovirus) (UniProt P19893)

## SMO-1 (from UniProt P55853)
PML SIM (Homo sapiens)
  Kd: 100 µM
[1]
  Kd: 100 µM
